# Test results from PubChem BioAssay AID492947 (National Center for Advancing Translational Sciences (NCATS), 2010).
# Where “and” joins values, the source holds several entries; their conditions need not be identical. Identical values can stand only once. This is a selection; strong and weak results do not stand in their true shares. Calls of active or inactive are those of the source. Calls come from the whole dose curve; as a rule, active = well fitted activation curve with a large enough effect; inconclusive = small, poorly fitted or top-dose-only effect; inactive = flat fitted curve, though single readings scatter.
# Target: Beta-2 adrenergic receptor (Homo sapiens) (UniProt P07550)
# Experiment: qHTS assay of beta-arrestin-biased ligands of beta2-adrenergic receptor;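 note: 0% = DMSO controls and full agonism = EC100 isoproterenol or metaproterenol; nearly all actives have a fitted effect of over 65% in size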
# Conditions: beta-arrestin recruitment to beta2AR, cell-based reporter; at 46.1 µM (top of the series)
# From the text: NIH Molecular Libraries Probe Production Network [MLPCN]
# NIH Chemical Genomics Center [NCGC]
# PI: Bryan Roth and Bob Lefkowitz
# The concept of biased agonism is an emerging concept of molecular pharmacology which proposes that seven transmembrane receptors (7TMRs) or G protein-coupled receptors (GPCRs), exist in multiple signaling conformations and complexes and that ligands (either agonists or antagonists) can induce signaling biased responses for distinct signal transduction cascades.
# Furthermore, accumulating evidence over the last decade has drawn attention to a novel function of beta-arrestins as signal transducers that scaffold various signaling molecules upon activation of 7TMRs. […] This beta-arrestin-biased signaling presumably leads to distinct physiological outcomes from those by G protein activation.
# Additionally, the active receptor conformations which […] on this beta-arrestin signaling are likely different from those activating G protein signaling
# The goal of this screening project will be to discover and optimize novel beta-arrestin-biased ligands for beta2-AR signaling. A luminescent cell-based assay for beta2-AR-mediated agonism, known as the Tango assay, has been validated in which ligand binding of a recombinant beta2-AR and subsequent recruitment of a recombinant beta-arrestin lead to the release of the transcriptional activator tTA, which upregulates transcription of a tTA-responsive luciferase gene. […] Compounds were screened as a concentration-titration series that ranged from 46 microM to 0.6 nM.
# NCGC Assay Protocol Summary:
# Tango cells were dispensed into white, solid, tissue-culture-treated 1536-well plates at 1500 cells/well in DMEM, containing 1% fetal bovine serum (FBS). Then, 23 nL of compounds or DMSO were delivered to each well using a pin tool. Plates were incubated at 37 degrees C, 5% CO2 for 18 hr. Then 2.5 uL luminescent substrate mix (in-house prepared: 150 mM Tris-Cl, pH 7.6, 3 mM MgCl2, 1% Triton X-100, 5 mM DTT, 0.5 mM CoA, 0.15 mM ATP, 0.44 mM D-luciferin, final concentrations) was added to each well. Plates were then incubated for 15 minutes at room temperature, and subsequently measured on a ViewLux plate reader for luminescent signal using a clear filter with a 10 second exposure and 2x binning. The %Activity was determined from the corrected luminescence values.
# Concentration-response curves were fitted to the signals arising from the resulting luminescence. The concentration-effect curves were then classified based on curve quality (r2), response magnitude and degree of measured activity, and compounds were subsequently categorized based on their curve class.
# Keywords: biased agonism, beta2-AR, beta-arrestin, GPCR, 7TMR, Tango, luminescence, MLSMR, MLPCN, NIH Roadmap, qHTS, NCGC
row,Compound,activation
1,CN(C(=O)Cc1ccc(Cl)c(Cl)c1)[C@@H]1CCCC[C@H]1N1CCCC1,inactive: -0.187%
2,CC(C)/C=N\N=C(\N)N[N+](=O)[O-],inactive: -0.0811%
3,COc1ccccc1CNC(=O)COC(=O)C(O)(c1ccccc1)c1ccccc1,inactive: -0.441%
4,O=C(/C=C/c1ccccc1)OC1CN2CCC1CC2 (stereo not drawn),inactive: 0.504%
5,CN(C)C1(CNC(=O)c2ccc(S(C)(=O)=O)cc2)CCCCC1,inactive: 0.204%
6,Cc1ccc(C(=O)OC2CN3CCC2CC3)cc1 (stereo not drawn),inactive: 0.163%
7,CC1CCC(C(C)C)C(OP(=O)(Nc2ccccn2)c2ccccc2)C1 (stereo not drawn),inactive: -0.298%
8,Cc1nn(-c2ccccc2)c2c1P(=O)(N1CCOCC1)N(C)C(c1ccccc1)=N2 (stereo not drawn),inactive: 0.0605%
9,O=[As](O)(c1cccs1)c1cccs1,inactive: -0.463%
10,Cc1ccc(OCC(=O)OC2CN3CCC2CC3)cc1 (stereo not drawn),inactive: -0.271%
11,NS(=O)(=O)c1cccc(NC(=O)COC(=O)C(O)(c2ccccc2)c2ccccc2)c1,inactive: 0.133%
12,O=P1(Nc2ccc(Br)cn2)COc2ccccc2OC1,inactive: -0.0536%
13,Nc1cccc([As](=O)(O)c2ccccc2)c1,inactive: 1.11%
14,O=P1(Nc2ncccn2)COc2ccccc2OC1,inactive: 0.848%
15,Cc1cc(SC(NC(=O)c2ccccc2)C(Cl)(Cl)Cl)nc(C(C)C)n1 (stereo not drawn),inactive: -0.814%
16,CCCCOc1ccc(C(=O)NCC2(N3CCCCC3)CCCCC2)cc1OC,inactive: 0.0214%
17,CCOC(=O)Nc1ccc([As](=O)(O)O)c(O)c1,inactive: -0.532%
18,O=[N+]([O-])c1ccc(Nc2ccc(Oc3ccc([N+](=O)[O-])cc3[N+](=O)[O-])cc2)c([N+](=O)[O-])c1,inactive: -0.263%
19,Cc1cc(SC(NC=O)C(Cl)(Cl)Cl)ncn1 (stereo not drawn),inactive: 0.2%
20,O=P(Nc1ccccn1)(c1cccc2ccccc12)c1cccc2ccccc12,inactive: 0.133%
21,CCOC(=O)Nc1cccc([As](=O)(O)O)c1,inactive: -0.978%

row,Compound,activation
1,O=C(Nc1ccncc1[N+](=O)[O-])c1ccc([N+](=O)[O-])cc1[N+](=O)[O-],inactive: 0.0187%
2,O=C(COc1ccccc1)OC1CN2CCC1CC2 (stereo not drawn),inactive: -0.153%
3,COP1(=S)c2c(C)nn(CCC#N)c2N=C(c2ccc(F)cc2)N1C (stereo not drawn),inactive: -0.429%
4,CCC(C)N(CC(C)C)C(=S)SC(NC(C)=O)C(Cl)(Cl)Cl (stereo not drawn),inactive: -1.18%
5,CCOC(=O)c1ccc(NC(=O)C(C)(CCl)SC)cc1 (stereo not drawn),inactive: -0.0757%
6,O=C(OC1CN2CCC1CC2)c1cccc([N+](=O)[O-])c1 (stereo not drawn),inactive: -0.704%
7,COc1cc(I)ccc1[As](=O)(O)O,inactive: -0.14%
8,COc1ccc2nc(NP(=O)(c3ccccc3)c3ccccc3)sc2c1,inactive: -0.131%
9,Cc1cc(=O)[nH]c(N[N+](=O)[O-])n1,inactive: -0.155%
10,O=C(OC1CN2CCC1CC2)C12CC3CC(CC(C3)C1)C2 (stereo not drawn),inactive: -0.0208%
11,Cc1c2c(nc3ccccc13)SC(C(Cl)Cl)C2 (stereo not drawn),inactive: 0.0486%
12,COc1ccc(N/C(=N/P(=O)(N2CCOCC2)N2CCOCC2)N2CCOCC2)cc1,inactive: -0.169%
13,Cc1ccc2nc3c(c(C)c2c1)CC(C(Cl)Cl)S3 (stereo not drawn),inactive: 0.327%
14,Cc1ccc(OP(=O)(Nc2ccc([N+](=O)[O-])cn2)Oc2ccc(C)cc2)cc1,inactive: -0.627%
15,COc1cc(C(=O)NCC2(N3CCOCC3)CCCCC2)ccc1OCC(C)C,inactive: -0.0029%
16,C[As](=O)(O)c1cccc(C(=O)O)c1,inactive: 0.494%
17,O=[As](O)(c1ccc(O)cc1)c1ccccc1O,inactive: -0.445%
18,O=[N+]([O-])c1cc([N+](=O)[O-])c(-c2ccn[nH]2)s1,inactive: 0.446%
19,CC(C)NC(=O)NP(=O)(Oc1ccccc1)Oc1ccccc1,inactive: -0.228%
20,CCN(CC)C(=S)SC(NC=O)C(Cl)(Cl)Cl (stereo not drawn),inactive: 0.202%
21,CC(C)c1ccc(OP(=O)(Nc2ccccn2)Oc2ccccc2F)cc1 (stereo not drawn),inactive: 0.0369%

row,Compound,activation
1,ClCCSc1nnc(-c2cccnc2)o1,inactive: 2.74%
2,Cc1ccc(NP(=O)(Oc2ccccc2F)Oc2ccccc2F)nc1,inactive: -0.385%
3,Cc1cc(SC(NC(=O)c2ccc(F)cc2)C(Cl)(Cl)Cl)ncn1 (stereo not drawn),inactive: -0.614%
4,CCOP(=O)(Nc1ccccc1)OCC,inactive: -0.229% and inactive: -0.0296%
5,CC(=O)Nc1ccc([As](=O)(O)O)cc1,inactive: -0.972%
6,O=C(O)c1ccccc1[As](=O)(O)O,inactive: -0.788%
7,O=P(Nc1nc2ccc(Cl)cc2s1)(c1ccccc1)c1ccccc1,inactive: 0.23%
8,CCN(N=Nc1nonc1N)c1nonc1N,inactive: -0.286%
9,Nc1cccc2ccc([As](=O)(O)O)cc12,inactive: -0.691%
10,O=[N+]([O-])c1cc([N+](=O)[O-])c(CCN2CCOCC2)c([N+](=O)[O-])c1,inactive: 0.516%
11,Cc1ccc(OP(=O)(Nc2nccs2)Oc2ccc(C)cc2)cc1,inactive: 0.0086%
12,COc1ccccc1OP(=O)(Nc1ccc(C)cn1)Oc1ccccc1OC,inactive: 0.247%
13,CN1CCCC(OC(=O)C(c2ccccc2)c2ccccc2)C1 (stereo not drawn),inactive: -0.355%
14,Clc1ccc(Cl)c(NC2=NCC(CBr)S2)c1 (stereo not drawn),inactive: -0.163%
15,NC(=O)c1cc([N+](=O)[O-])cc([N+](=O)[O-])c1N,inactive: 0.24%
16,Cc1ccc(N/C(=N/P(=O)(N2CCOCC2)N2CCOCC2)N2CCOCC2)cc1,inactive: 4.55%
17,CN(C(=O)Cc1ccc(Cl)c(Cl)c1)[C@H]1CCCC[C@H]1N1CCCC1,inactive: -0.155%
18,Nc1cc(N)c2nonc2c1[N+](=O)[O-],inactive: 0.476%
19,CC(C)CC(=O)NC(Sc1ccc(Cl)cc1)C(Cl)(Cl)Cl (stereo not drawn),inactive: 0.095%
20,O=C(NC(Sc1ccncn1)C(Cl)(Cl)Cl)c1ccccc1 (stereo not drawn),inactive: 0.0679%
21,Cc1c2non([O-])c-2c(C)[n+](=O)[n+]1[O-],inactive: 0.218%
